Results reported in paper PMC8920097, “Prediction of hERG inhibition of drug discovery compounds using biomimetic HPLC measurements” (ADMET & DMPK, 2021).

Sequences of proteins named here, by UniProt entry; tags and fusion partners are left off. Residues count along the entry.
UniProt P02768, 25-609: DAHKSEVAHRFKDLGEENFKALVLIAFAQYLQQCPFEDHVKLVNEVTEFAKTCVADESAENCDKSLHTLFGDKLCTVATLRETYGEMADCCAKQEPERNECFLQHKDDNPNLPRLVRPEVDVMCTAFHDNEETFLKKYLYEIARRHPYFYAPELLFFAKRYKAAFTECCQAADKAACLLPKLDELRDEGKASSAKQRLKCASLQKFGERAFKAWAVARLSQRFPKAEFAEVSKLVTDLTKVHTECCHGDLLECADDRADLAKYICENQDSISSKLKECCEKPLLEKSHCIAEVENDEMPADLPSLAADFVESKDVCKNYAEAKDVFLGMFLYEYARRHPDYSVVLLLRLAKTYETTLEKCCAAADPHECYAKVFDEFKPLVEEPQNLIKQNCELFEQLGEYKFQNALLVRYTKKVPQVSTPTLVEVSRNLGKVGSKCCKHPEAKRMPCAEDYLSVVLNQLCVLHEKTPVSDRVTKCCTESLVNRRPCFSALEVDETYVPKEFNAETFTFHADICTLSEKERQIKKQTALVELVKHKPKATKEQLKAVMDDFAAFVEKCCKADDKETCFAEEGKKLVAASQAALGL

How the values were obtained:
AGP = conditions: calibration set; equilibrium dialysis; literature; cited from earlier work
[1] = Phospholipid binding at pH 7.4 on IAM PC.DD2 HPLC column; conditions: for log k IAM: pH 7.4, derived from CHI IAM by equation 1; for CHI IAM: pH 7.4
[2] = CHI lipophilicity by gradient reversed-phase HPLC (Gemini NX-C-18); conditions: for chromatographic logD: Gemini NX-C-18 reversed-phase HPLC column, pH 7.4; for chromatographic logP: reversed-phase HPLC, Gemini NX-C-18 column (50 x 3 mm, 5 µm)
[3] = target: human serum albumin (HSA) (Homo sapiens, UniProt P02768); conditions: pH 7.4, Chiralpak HSA
hERG channel = conditions: cited from earlier work

SMILES	log k IAM [1]	CHI IAM [1]	chromatographic logD [2]	chromatographic logP [2]	further results
O=C(O)Cc1ccccc1Nc1c(Cl)cccc1Cl [Diclofenac]					% AGP (AGP): 60.0%
Cc1cc2c(s1)Nc1ccccc1N=C2N1CCN(C)CC1 [Olanzapine]			1.96	2.76	log k HSA [3]: 0.76; hERG pIC50 (hERG channel): 5.06
Cc1nc2n(c(=O)c1CCN1CCC(c3noc4cc(F)ccc34)CC1)CCCC2 [Risperidone]			1.46	2.18	

Second part, led by results:

log k IAM [1]	CHI IAM [1]	SMILES	chromatographic logD [2]	chromatographic logP [2]	further results
2.23		O=C(CCCN1CC=C(n2c(=O)[nH]c3ccccc32)CC1)c1ccc(F)cc1 [Droperidol]			
2.23	39.36	CCOC(=O)C1=C(C)NC(C)=C(C(=O)OC)C1c1cccc([N+](=O)[O-])c1 (stereo not drawn) [Nitrendipine]			
2.23	39.38	OCCOCCN1CCN(C2=Nc3ccccc3Sc3ccccc32)CC1 [Quetiapine]			
